Results on two compounds are retold here after PubChem BioAssay AID651768 (National Center for Advancing Translational Sciences (NCATS), 2012).

Sequences of proteins named here, by UniProt entry; tags and fusion partners are left off.
UniProt Q14191, whole entry: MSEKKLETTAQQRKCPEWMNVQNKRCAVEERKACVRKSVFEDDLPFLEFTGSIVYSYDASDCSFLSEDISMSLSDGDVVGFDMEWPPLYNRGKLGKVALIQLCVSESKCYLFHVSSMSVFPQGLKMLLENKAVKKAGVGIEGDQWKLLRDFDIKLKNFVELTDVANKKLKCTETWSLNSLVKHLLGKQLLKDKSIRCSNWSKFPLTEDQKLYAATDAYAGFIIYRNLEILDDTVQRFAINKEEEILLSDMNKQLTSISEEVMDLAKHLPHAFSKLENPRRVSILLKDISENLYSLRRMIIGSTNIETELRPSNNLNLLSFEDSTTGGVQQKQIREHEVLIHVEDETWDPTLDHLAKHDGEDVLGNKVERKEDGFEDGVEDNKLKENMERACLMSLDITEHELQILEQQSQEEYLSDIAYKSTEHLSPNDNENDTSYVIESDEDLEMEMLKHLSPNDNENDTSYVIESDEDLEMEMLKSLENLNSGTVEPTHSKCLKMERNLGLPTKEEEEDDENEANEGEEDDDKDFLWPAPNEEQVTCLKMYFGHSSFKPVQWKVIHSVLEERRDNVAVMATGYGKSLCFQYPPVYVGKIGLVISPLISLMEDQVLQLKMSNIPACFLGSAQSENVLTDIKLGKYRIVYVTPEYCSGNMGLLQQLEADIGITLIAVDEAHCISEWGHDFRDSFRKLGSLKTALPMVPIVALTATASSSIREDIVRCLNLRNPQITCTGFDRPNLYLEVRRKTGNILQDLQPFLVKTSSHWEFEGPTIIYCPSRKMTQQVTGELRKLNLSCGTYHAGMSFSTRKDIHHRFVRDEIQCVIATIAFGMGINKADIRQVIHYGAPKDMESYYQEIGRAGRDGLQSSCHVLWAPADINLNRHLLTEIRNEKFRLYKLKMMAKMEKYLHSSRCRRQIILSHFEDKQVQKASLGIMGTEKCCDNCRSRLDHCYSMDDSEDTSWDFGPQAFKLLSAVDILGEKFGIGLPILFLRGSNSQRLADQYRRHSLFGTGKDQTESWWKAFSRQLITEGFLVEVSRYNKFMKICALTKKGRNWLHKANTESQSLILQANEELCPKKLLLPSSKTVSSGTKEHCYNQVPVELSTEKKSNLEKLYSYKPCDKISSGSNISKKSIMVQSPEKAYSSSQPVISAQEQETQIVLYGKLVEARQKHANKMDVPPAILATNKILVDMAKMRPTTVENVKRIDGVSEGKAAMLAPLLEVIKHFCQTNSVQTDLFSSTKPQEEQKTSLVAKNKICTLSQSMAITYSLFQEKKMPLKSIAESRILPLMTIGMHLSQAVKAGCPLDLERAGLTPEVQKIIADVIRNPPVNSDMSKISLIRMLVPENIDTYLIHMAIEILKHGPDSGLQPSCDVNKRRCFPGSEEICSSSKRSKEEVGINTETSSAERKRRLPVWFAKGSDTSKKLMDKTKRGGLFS

The list shows a part of the results, in another mix than the full data. Calls of active or inactive are those of the source. The call rests on the fitted dose curve; in most records, active means well fitted inhibition curve with a large enough effect; inconclusive means small, poorly fitted or top-dose-only effect; inactive means no such curve, though single readings can be large or run the other way.
On the % scale 0 is the no-effect control and ±100 the full control effect.

This test addresses Bifunctional 3'-5' exonuclease/ATP-dependent helicase WRN (Homo sapiens) (UniProt Q14191). As to the kind of experiment: qHTS for Inhibitors of WRN Helicase. Further: nearly all actives have a fitted effect of over 55% in size. The conditions noted are these: WRN helicase unwinding, fluorescent forked duplex, kinetic; at 114 µM (top of the series). An excerpt:
Inhibition of DNA repair is proposed as a strategy for combating cancer. Synthetic lethality is an approach that exploits preexisting DNA repair deficiencies in certain tumors to develop inhibitors of DNA repair pathways that compensate for the tumor-associated DNA repair deficiency. […] We will employ an optimized high-throughput screening assay that utilizes a fluorescence intensity modulation scheme with a fluorophore and quencher positioned near one another within a duplex deoxyoligonucleotide that contains a single forked structure. […]
Three muL of reagents (buffer in columns 3 and 4 as negative controls; WRN at 20 nM final concentration in columns 1 and 2 as positive controls; columns 5-48 as test reactions) will be dispensed into a 1536-well Greiner black plate via solenoid-valve based nanoliter dispensers. […] Plates will be incubated for 15 min at room temperature, and then 1 µL of substrate (100 nM forked duplex oligonucleotide and 2 mM ATP final concentrations) will be added to start reaction, and plate will be transferred into a ViewLux high-throughput CCD imager where reaction progress is measured in kinetic mode using standard red-fluorescence optics (excitation filter 525 nm, emission filter 598 nm).
As to `CCC(=O)N(c1ccccc1)C1(COC)CCN(CCc2cccs2)CC1`, the activity change, negative = inhibition was inactive: 8.27%. Take `CCC(=O)N(c1ccccc1)C1(COC)CCN(CCn2nnn(CC)c2=O)CC1`: the activity change, negative = inhibition is inactive: 3.7%.
